{"source": "patent US20100227896A1", "about": "“USE OF VITAMIN PP COMPOUNDS” (ASTELLAS DEUTSCHLAND GMBH, priority 1998, published 2010)", "test_system": "NMRI mice", "settings": "dead/6 mice", "protocol": "Parallel to this, 500 mg/kg nicotinamide was simultaneously intraperitoneally administered each to the individual dosage groups. 7 days after the beginning of treatment, the blood picture of the individual animals was examined.", "note": "Read-outs that look alike come from different tables or passages of the source.", "data": [{"smiles": "O=C(CCc1cccnc1)NCCCCC1CCN(C(c2ccccc2)c2ccccc2)CC1", "note": "[K22.097, N-[4-(1-diphenylmethylpiperidin-4-yl)-butyl]-3-(pyridin-3-yl)-propionamide]", "values": [{"measurement": "Mortality", "setting": "2 × 100 mg/kg K22.097 orally + 2 × 500 mg/kg nicotinamide intraperitoneally", "value": "0/6"}, {"measurement": "Mortality", "setting": "2 × 100 mg/kg K22.097 orally twice daily over 4 days", "value": "1/6"}, {"measurement": "Mortality", "setting": "2 × 120 mg/kg K22.097 orally + 2 × 500 mg/kg nicotinamide intraperitoneally", "value": "0/6"}, {"measurement": "Mortality", "setting": "2 × 120 mg/kg K22.097 orally twice daily over 4 days", "value": "3/6"}]}]}
